# Target: Recombinant human cathepsin S (CatS) (Homo sapiens, UniProt P25774)
# Amino acid sequences for entries named in this document (tags omitted). Residues count along the entry.
# UniProt P25774, 115-331 limits assumed: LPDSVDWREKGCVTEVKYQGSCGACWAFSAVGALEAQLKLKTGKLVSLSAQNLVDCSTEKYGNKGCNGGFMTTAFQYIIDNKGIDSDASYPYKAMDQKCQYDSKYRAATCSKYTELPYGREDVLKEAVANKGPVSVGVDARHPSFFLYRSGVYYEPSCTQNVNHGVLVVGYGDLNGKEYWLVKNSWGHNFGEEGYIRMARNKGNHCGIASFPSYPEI
# Assay: Cathepsin S Inhibition Assay
# Assay type: biochemical
# Conditions: Table 1; 100 mM sodium acetate pH 5.0, 1 mM DTT, 100 mM NaCl; 20 μM substrate
row,SMILES,IC50 [nM]
1,CS(=O)(=O)N1CCc2c(c(-c3ccc(C(F)(F)F)cc3)nn2CCCN2CCC(N3C(=O)Cc4ccccc43)CC2)C1,30
2,O=C1COc2ccccc2N1C1CCN(CC(O)Cn2cc(-c3cnccn3)c(-c3ccc(C(F)(F)F)cc3)n2)CC1 (centres unmarked),780
3,CS(=O)(=O)N1CCc2c(c(-c3ccc(C(F)(F)F)cc3)nn2CC(O)CN2CCC(N3C(=O)Cc4cc(Cl)ccc43)CC2)C1 (centres unmarked),30

# Same assay, conditions: Table 2; 100 mM sodium acetate pH 5.0, 1 mM DTT, 100 mM NaCl; 20 μM substrate
row,SMILES,IC50 [nM]
1,CS(=O)(=O)N1CCc2c(c(-c3ccc(C(F)(F)F)cc3)nn2CCCN2CCC(N3C(=O)Cc4ccc(Cl)cc43)CC2)C1,40
2,CS(=O)(=O)N1CCc2c(c(-c3ccc(C(F)(F)F)cc3)nn2CCCN2CCC(N3C(=O)NCc4ccccc43)CC2)C1,20
3,CS(=O)(=O)N1CCc2c(c(-c3ccc(C(F)(F)F)cc3)nn2CC(O)CN2CCC(N3C(=O)COc4ccccc43)CC2)C1 (centres unmarked),20

# Same assay, conditions: Table 3; 100 mM sodium acetate pH 5.0, 1 mM DTT, 100 mM NaCl; 20 μM substrate
row,SMILES,IC50 [nM]
1,Cc1cccc2c1N(C1CCN(CCCn3nc(-c4ccc(Br)cc4)c4c3CCN(C(N)=O)C4)CC1)C(=O)CO2,90
2,CCS(=O)(=O)c1ccc2c(c1)N(C1CCN(CCCn3nc(-c4ccc(Br)cc4)c4c3CCN(C(N)=O)C4)CC1)C(=O)CO2,60
3,CS(=O)(=O)N1CCc2c(c(-c3ccc(C(F)(F)F)cc3)nn2CCCN2CCC(N3C(=O)Cc4ccccc43)CC2)C1,40
4,CC(=O)N1CCc2c(c(-c3ccc(Cl)c(C)c3)nn2CC(O)CN2CCC(N3C(=O)Cc4cc(Cl)ccc43)CC2)C1 (centres unmarked),140
5,CC(=O)N1CCc2c(c(-c3ccc(Cl)c(C)c3)nn2CC(O)CN2CCC(N(C(=O)c3ccccc3)c3cccc(Cl)c3)CC2)C1 (centres unmarked),640
6,Cc1cc(-c2nn(CC(O)CN3CCC(N4C(=O)Cc5ccccc54)CC3)c3c2CN(S(C)(=O)=O)CC3)ccc1Cl (centres unmarked),40
7,NC(=O)N1CCc2c(c(-c3ccc(Cl)c(Cl)c3)nn2CCCN2CCC(N3C(=O)Cc4cc(Cl)ccc43)CC2)C1,60
8,O=C1NCc2ccccc2N1C1CCN(CCCn2nc(-c3ccc(C(F)(F)F)cc3)c3c2CCNC3)CC1,1800
9,O=C1CCc2ccccc2N1C1CCN(CCCn2nc(-c3ccc(C(F)(F)F)cc3)c3c2CCNC3)CC1,1400
10,CC(C)(C)OC(=O)N1CCc2c(c(-c3ccc(C(F)(F)F)cc3)nn2CC(O)CN2CCC(N3C(=O)CCc4ccccc43)CC2)C1 (centres unmarked),840
11,CC(=O)N1CCc2c(c(-c3ccc([N+](=O)[O-])cc3)nn2CC(O)CN2CCC(N3C(=O)Cc4ccccc43)CC2)C1 (centres unmarked),150
12,CS(=O)(=O)N1CCc2c(c(-c3ccc(C(F)(F)F)cc3)nn2CC(O)CN2CCC(N3C(=O)OCc4ccccc43)CC2)C1 (centres unmarked),90
13,CS(=O)(=O)N1CCc2c(c(-c3ccc(C(F)(F)F)cc3)nn2CCCN2CCC(N3C(=O)COc4ccc(Cl)cc43)CC2)C1,130
14,CCS(=O)(=O)c1ccc2c(c1)N(C1CCN(CCCn3nc(-c4ccc(Br)cc4)c4c3CCN(C(=O)OC(C)(C)C)C4)CC1)C(=O)CO2,1100
15,CC(=O)N1CCc2c(c(-c3ccc(Cl)c(C)c3)nn2CC(O)CN2CCC(N3C(=O)Cc4ccccc43)CC2)C1 (centres unmarked),90
16,CC(=O)N1CCc2c(c(-c3ccc(Br)cc3)nn2CC(O)CN2CCC(N3C(=O)Cc4ccccc43)CC2)C1 (centres unmarked),150
17,CC(C)(C)OC(=O)N1CCc2c(c(-c3ccc(Br)cc3)nn2CC(O)CN2CCC(N3C(=O)CCc4ccccc43)CC2)C1 (centres unmarked),1100
18,CS(=O)(=O)N1CCc2c(c(-c3ccc(Br)cc3)nn2CCCN2CCC(N3C(=O)NCc4ccccc43)CC2)C1,90
19,CC(=O)N1CCc2c(c(-c3ccc(C(F)(F)F)cc3)nn2CCCN2CCC(N3C(=O)COc4cccc(C)c43)CC2)C1,280
20,CS(=O)(=O)N1CCc2c(c(-c3ccc(Br)cc3)nn2CCCN2CCC(N3C(=O)CCc4ccccc43)CC2)C1,70

# Reference: patent US6953793B2 (priority 2000, dated 2005)
